Experimental findings from patent US10202375B2, “N-pyridinyl acetamide derivatives as Wnt signalling pathway inhibitors” (Redx Pharma PLC, priority 2014, dated 2019) are described below.

For this assay, the system named is Wnt pathway (L-Wnt cells producing murine Wnt-3a; Leading Light Wnt Reporter Cells). In words: Dual-Cell β-Catenin Reporter Assay. Format: cell-based. Particulars: Mus musculus, luciferase signal reduced to 50% of DMSO control; category symbols. Here is the method:
Dual-Cell β-Catenin Reporter Assay
Mouse L cells transfected to constitutively produce biologically active murine Wnt-3a, referred to as L-Wnt cells, were purchased from the American Type Culture Collection, ATCC, Manassas, Va. (ATCC). These cells were cultured in DMEM supplemented with 10% FCS (Gibco/Invitrogen, Carlsbad, Calif.), 1% geneticin and 1% sodium pyruvate (Sigma) at 37° C. with 5% CO2. The cells were seeded into 96 well plates and treated with serial dilutions of compound diluted to 0.1% DMSO concentration. After 24 hours, cell supernatants were transferred to a 96 well plate previously seeded with Leading Light® Wnt Reporter Cells, stably transfected with a luciferase gene under control of Wnt pathway response elements. After a further 24 hours, cells are treated with One-glo luciferase assay system (Promega, Madison, Wis.) and the luminescent signal read by envision.

pIC50: −log10 of the molar value.

In the case of `Cc1cc(-c2ccnc3c2ccn3CC(=O)Nc2ccc(-c3cnccn3)cn2)ccn1` [ID No. 27, 2-[4-(2-methyl-4-pyridyl)pyrrolo[2,3-b]pyridin-1-yl]-N-(5-pyrazin-2-yl-2-pyridyl)acetamide], the pIC50 is > 9.00. `Cc1cc(-c2ncnc3c2ccn3CC(=O)Nc2ccc(-c3cnccn3)cn2)ccn1` [compound 26, 2-[4-(2-methyl-4-pyridyl)pyrrolo[2,3-d]pyrimidin-7-yl]-N-(5-pyrazin-2-yl-2-pyridyl)acetamide]: the pIC50 was > 9.00.
